What was measured:
[1] = biological target: T1, AT1R (Homo sapiens, UniProt P30556); details: pIC50 or pKb from IUPHAR and/or Michel et al (2013), fimasartan from Choung et al 2018; cited from earlier work
[2] = biological target: T1, AT1R; assay: ARB potency or affinity at AT1R only (public sources: IUPHAR guide to pharmacology, Michel et al 2013, Choung et al 2018); assay type: binding; details: reference value
[3] = biological target: T2, co-stimulated CCR2-AT1R complexes (Homo sapiens, UniProt P30556); assay: Gαi protein dissociation assay (ligand-induced BRET) in HEK293FT cells co-stimulated with AngII and MCP-1/CCL2; assay type: cell-based; details: compared to AT1R only; ROUT Q=1
T2 construct: HA (haemagglutinin); expressed in transfected cells; host or cells: HEK293FT

Structure (SMILES) | Potency (pIC50/pKb), AT1R only [1] | Fold decrease in potency, AT1R only [2] | potency for inhibition of Gαi protein activation at co-stimulated CCR2-AT1R complexes (outlier analysis) [3]
CCCc1nc2c(C)cc(-c3nc4ccccc4n3C)cc2n1Cc1ccc(-c2ccccc2C(=O)O)cc1 [Telmisartan] | 8.61 | 1.00 fold | –
CCCCC(=O)N(Cc1ccc(-c2ccccc2-c2nnn[nH]2)cc1)[C@H](C(=O)O)C(C)C [Valsartan] | 9.26 | – | –
CCCc1nc(C(C)(C)O)c(C(=O)O)n1Cc1ccc(-c2ccccc2-c2nnn[nH]2)cc1 [Olmesartan] | 9.9 | 1.00 fold | –
CCCCc1nc(Cl)c(C(=O)O)n1Cc1ccc(-c2ccccc2-c2nn[nH]n2)cc1 [EXP3174] | 9.62 | 1.00 fold | lower-than-expected potency

Source: patent publication US20260315521A1, “THERAPEUTIC FORMULATIONS FOR KIDNEY DISEASE COMPRISING REPAGERMANIUM OR PROPAGERMANIUM AND/OR AT1R BLOCKERS” (DIMERIX BIOSCIENCE PTY LTD, priority 2023, published 2026)
